# Assays:
# [1] = brimonidine at 0.033%, left eye, 4 hrs after previous treatment
# [2] = 0.03% brimonidine nasal spray repeated for one week, n of 1
# [3] = FIG. 2
# [4] = Example 4: red eye study, cumulative red scores, brimonidine vs VISINE Original; details: brimonidine at 0.05% as printed (1 of 15)
# [5] = Example 2: Lasik prophylaxis, postoperative hyperemia, hemorrhage and flap dislocation
smiles,measurement,setting,value
"Brc1c(N=C2NCCN2)ccc2nccnc12.O=C(O)C(O)C(O)C(=O)O [brimonidine, 5-bromo-6-(2-imidazolidinylideneamino)quinoxaline L-tartrate]",rebound hyperemia after third application,[1],without rebound hyperemia
same,rebound on repeated use,[2],without rebound
same,"concentration giving rebound virtually identical to tetrahydrozaline, naphazoline and oxymetazoline",[3],≥ 0.10%
same,Rebound hyperemia after one dose (share of patients),[4],6.6%
same,Flap dislocation rate,"[5]; Naphcon-A, brimonidine 0.02% preoperatively, initial trial",under 1%
same,adverse cardiovascular events,[5]; brimonidine 0.02%,No adverse cardiovascular events

# Reference: US8580787B2, “Compositions and methods for reducing activation of alpha-1 receptors” (Eye Therapies LLC, priority 2008, dated 2013)
